Reported properties for industrial, environmental and drug-like chemicals

From the experimental data distributed with OPERA 2.9.

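OPERA's authors assembled the values from existing databases and did not measure them anew. A listed value is a point estimate from one report or more. How each value was measured is not recorded, so precision varies. A value may pool stereoisomers or salt forms, and the file does not say which form was measured. Unmarked limits or estimates from the upstream databases cannot be ruled out.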

Melting points are in °C.
The boiling point refers to atmospheric pressure (760 mmHg), by the definition of the set.
The octanol-water partition coefficient is given as log10; larger values mean a more lipophilic compound.
Water solubility is log10 of mol/L, nominally at 25 °C; higher is more soluble.
Vapor pressure is log10 of mmHg; the set covers 15 to 30 °C, mostly 20 to 25 °C.
Henry's law constant (air-water partitioning) is log10 of atm·m3/mol, nominally at 25 °C.
fu is the fraction unbound in human plasma, from 0 to 1.
Cells with "n/a" have no entry in this list.

For COC(=O)CCN(CCC(=O)OC)c1ccc(N=Nc2ccc([N+](=O)[O-])cc2[N+](=O)[O-])c(NC(C)=O)c1 the data give melting point 162 °C and logP 4.5. The entry for C=CC(C)(CCC=C(C)C)OC(=O)C(C)C (stereo not drawn) [Linalyl isobutyrate] lists logP 5.5 and log solubility -4.811 (log10 mol/L) and log VP -1.46 (log10 mmHg). The entry for CO[Si](C)(OC)C1CCCCC1 [Cyclohexyl(methyl)dimethoxysilane] lists log solubility -3.096 (log10 mol/L) and log VP -0.386 (log10 mmHg). O=C(Sc1nnc(S)s1)c1ccccc1 is reported with melting point 226 °C and log VP -7.992 (log10 mmHg).

The entry for C=CC(=O)OCCCCCCOC(=O)C=C [1,6-Hexanediol diacrylate] lists logP 2.81 and log VP -3.347 (log10 mmHg). The entry for CC(O)COC(C)CO[C@@H]1C[C@H]2CC[C@]1(C)C2(C)C (stereo in doubt) lists boiling point 301.5 °C and logP 4.58 and log solubility -3.244 (log10 mol/L) and log VP -4.932 (log10 mmHg). The entry for C[C@]1(COC(=O)C2CC2)[C@@H]2C[C@H](O)[C@@]3(C)Oc4cc(-c5cccnc5)oc(=O)c4[C@H](O)[C@@H]3[C@@]2(C)CC[C@@H]1OC(=O)C1CC1 [Afidopyropen] lists melting point 150 °C and logP 3.45 and log solubility -4.374 (log10 mol/L) and log VP -7.129 (log10 mmHg). For O=C(O)c1ccc2c(c1)C(=O)OC2=O [Trimellitic anhydride] the data give logP 0.54 and log solubility -2.275 (log10 mol/L).

CC(C)c1ccc(Cl)cc1CNC1CC1 is reported with logP 4.5 and log solubility -3.403 (log10 mol/L) and log VP -2.885 (log10 mmHg). CC(C)(C#N)CC1=CCC2CC1C2(C)C (stereo not drawn) is reported with melting point 37.85 °C and boiling point 271.2 °C and logP 4.35 and log solubility -4.385 (log10 mol/L) and log VP -1.593 (log10 mmHg). Listed for N[C@@H](C(=O)N[C@@H]1C(=O)N2C(C(=O)O)=C(Cl)CC[C@H]12)c1ccccc1: logP 0.5 and log solubility -3.032 (log10 mol/L) and fu 0.75. For Nc1nc(=O)c2c(CCc3ccc(C(=O)O)cc3)c[nH]c2[nH]1 the data give logP 1.5 and log solubility -3.574 (log10 mol/L).

For C1=C\CCCCCC/1 [Cyclooctene, (1Z)-] the data give melting point -13.9 °C and logP 5 and log solubility -4.565 (log10 mol/L) and log VP 0.871 (log10 mmHg). The entry for CN(C)c1ccc(C(c2ccc(N(C)C)cc2)c2ccc(N(C)C)cc2)cc1 [Leucogentian violet] lists log solubility -5.458 (log10 mol/L) and log VP -6.87 (log10 mmHg). COc1ccccc1NC(=O)c1cc2ccccc2c(N=Nc2cc(Cl)ccc2Cl)c1O is reported with melting point 265 °C and log solubility -8.465 (log10 mol/L). Listed for CC1(C)CC(O)CC(C)(C)N1CCO [1-(2-Hydroxyethyl)-2,2,6,6-tetramethyl-4-piperidinol]: logP 0.5 and log VP -6.301 (log10 mmHg).

CC(=O)Nc1cccc(Nc2cc(S(=O)(=O)[O-])c(N)c3c2C(=O)c2ccccc2C3=O)c1.[Na+] [C.I. Acid Blue 324] is reported with logP 1.6 and log solubility -4.418 (log10 mol/L). CNC(=O)N(C)c1nnc(C(F)(F)F)s1 [2-(N,N'-Dimethylureido)-5-trifluoromethyl-1,3,4-thiadiazole] has log VP -5.437 (log10 mmHg) and Henry's law constant -10.64 (log10 atm·m3/mol). CCC[C@H]1CC[C@H](C2CC=C(c3ccc(OCC)c(F)c3F)CC2)CC1 (some centres not stated) has melting point 71 °C and boiling point 398 °C and log solubility -6.957 (log10 mol/L) and log VP -7.714 (log10 mmHg). For COCc1c(C)cccc1N [2-(Methoxymethyl)-3-methyl-aniline] the data give boiling point 251.6 °C and log VP -1.888 (log10 mmHg).

The entry for NNCCc1ccccc1 [Phenelzine] lists logP 1.1 and log solubility -1.089 (log10 mol/L). CCCCS(=O)(=O)N[C@@H](Cc1ccc(OCCCCC2CCNCC2)cc1)C(=O)O [Tirofiban] is reported with logP 1.4 and log solubility -5.143 (log10 mol/L). The entry for O=C1C2=C(O)CCC(O)=C2C(=O)c2ccccc21 lists melting point 152.8 °C and log solubility -5.509 (log10 mol/L). Listed for N#Cc1cccc([N+](=O)[O-])c1C#N [1,2-Benzenedicarbonitrile, 3-nitro-]: log solubility -2.937 (log10 mol/L) and log VP -6.824 (log10 mmHg).

For Cc1ccc(N)cc1S(=O)(=O)O [5-Amino-2-methylbenzenesulfonic acid] the data give logP 0.65 and log solubility -1.818 (log10 mol/L). Listed for CS(=O)(=O)OCC1COC(Cn2cncn2)(c2ccc(Cl)cc2Cl)O1.Cl (stereo not drawn): melting point 149.8 °C and logP 1.7 and log solubility -3.027 (log10 mol/L). The entry for O=C1CCc2[nH]c3ccccc3c2C1 [1,2,4,9-Tetrahydro-3H-carbazol-3-one] lists logP 2.4 and log solubility -3.511 (log10 mol/L) and log VP -6.727 (log10 mmHg). COc1cc(C(=O)Nc2ccc3nn(C4CCCCC4)nc3c2)cc(OC)c1OC is reported with melting point 130 °C and logP 4.45.

Listed for CC(=O)OCCC(C)(C)O [1-Acetoxy-3-methyl-3-butanol]: boiling point 206.2 °C and logP 0.8 and log VP -1.212 (log10 mmHg). Listed for COc1c(N2CCNC(C)C2)c(F)cc2c(=O)c(C(=O)O)cn(C3CC3)c12 (stereo not drawn) [Gatifloxacin]: logP 2.6 and log solubility -2.774 (log10 mol/L). Listed for CC(C)CC(=O)OCc1ccccc1 [Benzyl 3-methylbutanoate]: melting point -10.04 °C and log solubility -2.907 (log10 mol/L). C=CC(=O)OC1CCC(C(C)(C)C)CC1 (stereo not drawn) [4-tert-Butylcyclohexyl prop-2-enoate] has logP 5.55 and log solubility -3.484 (log10 mol/L).

C=C[C@]1(C)C[C@@H](OC(=O)CO)[C@]2(C)[C@H](C)CC[C@]3(CCC(=O)[C@H]32)[C@@H](C)[C@@H]1O [Pleuromutilin] has logP 1.36 and log solubility -2.837 (log10 mol/L) and log VP -9.795 (log10 mmHg). Listed for Cc1ccccc1NC(=N)NC(=N)N [1-(o-Tolyl)biguanide]: logP 0.71 and log solubility -1.842 (log10 mol/L).

Extract of 2 entries:

structure (SMILES)	name	melting point (°C)	boiling point (°C)	logP	log solubility (log10 mol/L)	log VP (log10 mmHg)	Henry's law constant (log10 atm·m3/mol)	fu
O=C(O)c1ccc2c(c1)C(=O)OC2=O	Trimellitic anhydride	n/a	n/a	0.54	-2.275	n/a	n/a	n/a
C=CC(=O)OCCCCCCOC(=O)C=C	1,6-Hexanediol diacrylate	n/a	n/a	2.81	n/a	-3.347	n/a	n/a